Measured values taken from ChEMBL document CHEMBL2010744, “Pyridyl aminothiazoles as potent inhibitors of Chk1 with slow dissociation rates” (Bioorg Med Chem Lett, 2012).

Target: T1, Serine/threonine-protein kinase Chk1 (Homo sapiens, UniProt O14757)
T1 sequence (O14757 whole entry): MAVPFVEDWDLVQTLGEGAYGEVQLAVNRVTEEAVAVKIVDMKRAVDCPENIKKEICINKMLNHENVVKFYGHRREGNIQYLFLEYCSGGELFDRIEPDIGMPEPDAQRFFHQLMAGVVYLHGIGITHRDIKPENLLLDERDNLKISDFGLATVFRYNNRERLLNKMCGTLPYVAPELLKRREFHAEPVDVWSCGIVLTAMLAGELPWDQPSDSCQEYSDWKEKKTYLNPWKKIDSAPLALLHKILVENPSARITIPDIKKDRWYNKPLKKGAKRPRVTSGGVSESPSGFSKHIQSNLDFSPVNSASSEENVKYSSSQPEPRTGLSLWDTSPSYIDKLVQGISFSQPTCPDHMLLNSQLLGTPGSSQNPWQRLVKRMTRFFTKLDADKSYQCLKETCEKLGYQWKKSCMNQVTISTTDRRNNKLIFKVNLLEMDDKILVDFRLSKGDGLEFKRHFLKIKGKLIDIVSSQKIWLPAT
Experiment: Competitive inhibition of Chk1 in presence of higher ATP levels

| IC50 [nM] | Structure (SMILES) |
| --- | --- |
| 0.05 | NCCNC(=O)c1cncc(-c2cnc(Nc3cc(N4CCOCC4)ccn3)s2)c1 |
| 47 | O=C(CN1CCN(c2ccnc(Nc3ncc(-c4cccnc4)s3)c2)CC1)N1CCOCC1 |
